# Laboratory results taken from PubChem BioAssay AID504842 (National Center for Advancing Translational Sciences (NCATS), 2011).
# The list shows a part of the results, in another mix than the full data. Activity calls are given as the source filed them. The call rests on the fitted dose curve; in most records, active means well fitted inhibition curve with a large enough effect; inconclusive means small, poorly fitted or top-dose-only effect; inactive means flat fitted curve, though single readings scatter.
# Test system: Chaperonin Mm-Cpn (Methanococcus maripaludis)
# Test: Inhibitors of TCP-1 ring complex (TRiC) of Methanococcus maripaludis (MmCpn): qHTS; further: nearly all actives have a fitted effect of over 80% in size
# Conditions: purified Mm-Cpn ATPase, ADP Transcreener TR-FRET; at 76.9 µM (top of the series)
# Source text: The eukaryotic chaperonin TRiC (for TCP-1 ring complex) is an essential and conserved chaperone required for the folding and activation of 10-15% of the proteins encoded by the human genome. […] The TRiC complex consist of two stacked 7-9 membered rings, each containing a central cavity. Substrates are folded within the cavity in an ATP-dependent manner. TRiC is a complex of eight different, essential proteins. As each of the genes encoding the eight subunits is essential for cell viability and no protocol has been developed to over-express this enzyme to high levels. That is why several groups studying the TRiC chaperonin have turned to the archaeal homolog of TRiC, Methanococcus maripaludis (Mm-CPN), and have used this enzyme as a model system for the study of the type II chaperonin family. Small molecule inhibitors of the Mm-CPN enzyme would be extremely useful to study the mechanism of chaperonin activity. Importantly, TRiC and Mm-CPN both require ATP hydrolysis for function. Furthermore, the ATP binding sites are highly conserved among these type II chaperonins. This provides us with an easy, well tested and straightforward assay to identify inhibitors of chaperonin activity. The Mm-CPN assay was developed in 1536-well plate format using the HTRF Transcreener ADP assay kit (Cisbio, Bedford, MA). This assay applied the time resolved fluorescence resonance energy transfer (TR-FRET) principle. ATP in the presence of Mm-CPN is converted to ADP + Pi. An antibody labeled with Eu3+-Cryptate specific and bound to ADP labeled with […] (d2) competes with the unlabeled ADP generated by Mm-CPN. The resulting TR-FRET signal is inversely proportional to the concentration of ADP in the sample. In this assay a reduction in TR-FRET signal is observed with ATP turnover. NIH Chemical Genomics Center [NCGC] NIH Molecular Libraries Probe Centers Network [MLPCN] MLPCN Grant: DA030554-01A1 Assay Submitter (PI): Judith Frydman, Stanford University
# Purified Mm-CPN was supplied by the laboratory of Dr. Judith Frydman. Protein samples were stored at -80C as single use aliquots. Protein was thawed in ambient temperature water bath and placed on ice once thawed. Buffer was prepared fresh day of screen. The buffer composition below was used to prepare the working solution of the Mm-CPN protein and ATP substrate. The buffer is comprised of 30 mM TRIS pH 7.4, 100mM KCl, 5mM MgCl2, and 1mM DTT. A final concentration of 25nM Mm-CPN and 10uM ATP per well were used in the screen. Instructions according to the manufacturer were followed for the ADP Transcreener kit. Used 1536 well Greiner white, medium binding (MB), solid bottom plates. Plates were read on the PerkinElmer EnVision plate reader using Excitation = 320 nm and Emission = […], 665 nm. Protocol- 1.Dispense 1.5ul per well of working [Mm-CPN] = 50nM (or 75 ng / well) 2.Spin plate at 1000 rpm for 30 seconds 3.23nl of compound transferred per well 4.Incubate at 37degC for 10 minutes 5.Dispense 1.5ul per well of working [ATP] = 20uM 6.Incubate at 37degC for 30 minutes 7.Dispense 3ul per well of Anti-ADP Cryptate / ADP-d2 mix (prepared as instructed by Cisbio) 8.Incubate at ambient for 30 minutes 9.Read using EnVision
# On the % scale 0 is the no-effect control and ±100 the full control effect.
row,Structure (SMILES),"activity, negative = inhibition"
1,COc1ccccc1OP(C)(=O)Nc1ccc(Br)cc1 (stereo not drawn),inactive: -0.492%
2,COc1ccc(OP(C)(=O)Nc2ccccn2)cc1 (stereo not drawn),inactive: -1.38%
3,CN(C)CCOC(=O)C(O)(c1ccccc1)C1CCCC1 (stereo not drawn),inactive: -0.837%
4,O=[N+]([O-])c1cc([N+](=O)[O-])c(Nc2ccccn2)c([N+](=O)[O-])c1,inactive: -0.298%
5,Cc1c(NP(C)(=O)Oc2ccc(C(C)C)cc2)c(=O)n(-c2ccccc2)n1C (stereo not drawn),inactive: 2.22%
6,COc1ccccc1OP(C)(=O)Nc1ccc(C)cc1C (stereo not drawn),inactive: -3.45%
7,CP(=O)(Nc1ccccn1)Oc1ccccc1 (stereo not drawn),inactive: -0.709%
8,CCc1ccc(OP(C)(=O)O)cc1,inactive: -0.523%
9,Cc1cc(C)cc(OP(C)(=O)Nc2cccc(C(F)(F)F)c2)c1 (stereo not drawn),inactive: -5.02%
10,COc1ccccc1OP(C)(=O)Nc1ccc(C)c(C)c1 (stereo not drawn),inactive: -1.43%
11,COc1ccc(OP(C)(=O)Nc2ccccc2Br)cc1 (stereo not drawn),inactive: 0.357%
12,Cc1nc2ccc3ccccc3c2o1.O=[N+]([O-])c1cc([N+](=O)[O-])c(O)c([N+](=O)[O-])c1,inactive: 2.29%
13,CP(=O)(OCCOc1ccccc1)OCCOc1ccccc1,inactive: -3.43%
14,CP(=O)(Nc1ccc(Cl)cc1Cl)Oc1ccccc1 (stereo not drawn),inactive: -4.37%
15,CCOC(=O)c1ccc(NP(C)(=O)Oc2ccc(Cl)cc2)cc1 (stereo not drawn),inactive: -9.84%
16,CP(=O)(OC12CC3CC(CC(C3)C1)C2)OC12CC3CC(CC(C3)C1)C2,inactive: -1.04%
17,COc1ccc(OP(C)(=O)Nc2ccc(Br)cc2)cc1 (stereo not drawn),inactive: 1.85%
18,CCN(CC)CC(O)COC(=O)C(O)(c1ccccc1)C1CCCCC1 (stereo not drawn),inactive: 0.256%
19,O=C(OCCCN1CCCC1)C(O)(c1ccccc1)C1CCCCC1 (stereo not drawn),inactive: -0.127%
20,COc1ccccc1OP(C)(=O)Nc1c(C)n(C)n(-c2ccccc2)c1=O (stereo not drawn),inactive: -3.25%

row,Structure (SMILES),"activity, negative = inhibition"
1,CCc1ccc(OP(C)(=O)Nc2cccnc2)cc1 (stereo not drawn),inactive: 0.389%
2,CP(=O)(Oc1ccccc1)N1CCOC1=O (stereo not drawn),inactive: 0.102%
3,CC(C)(C)c1ccc(OP(C)(=O)O)cc1,inactive: -2.28%
4,COc1ccccc1OP(C)(=O)Nc1ccccc1Br (stereo not drawn),inactive: -9.46%
5,CP(=O)(Nc1ccc(Cl)cc1)Oc1ccc(F)cc1 (stereo not drawn),inactive: 0.831%
6,CN(C)C(=O)c1c([N+](=O)[O-])cc([N+](=O)[O-])cc1[N+](=O)[O-],inactive: -1.14%
7,CP(=O)(Nc1ccc(SC(F)(F)F)cc1)Oc1ccc(F)cc1 (stereo not drawn),inactive: 1.64%
8,CCOP(C)(=S)SCC(=O)NC(C)(CC)C(=O)O (stereo not drawn),inactive: 0.993%
9,CP(=O)(Nc1ccc2c(c1)OCCO2)Oc1ccccc1 (stereo not drawn),inactive: 1.45%
10,Cc1ccccc1NP(C)(=O)Nc1ccccc1C,inactive: -0.538%
11,COc1ccc(OP(C)(=O)Nc2cccc(Br)c2)cc1 (stereo not drawn),inactive: -2.26%
12,CN(C)CCOC(=O)C(O)(c1ccccc1)C1CCCCC1 (stereo not drawn),inactive: 0.014%
13,COc1ccc(NP(C)(=O)Oc2ccccc2OC)cc1 (stereo not drawn),inactive: -0.337%
14,O=[N+]([O-])c1ccc(OP2(=O)COCCO2)cc1 (stereo not drawn),inactive: -0.713%
15,Cc1cc(-c2cccc3ccccc23)c(C)cn1.O=[N+]([O-])c1cc([N+](=O)[O-])c(O)c([N+](=O)[O-])c1,inactive: 1.01%
16,CCOC(=O)c1ccc(NP(C)(=O)Oc2ccc(F)cc2)cc1 (stereo not drawn),inactive: 2.14%
17,COc1ccc(OP(C)(=O)Nc2ccc(SC(F)(F)F)cc2)cc1 (stereo not drawn),inactive: 1.15%
18,CCN(CC)CCCOC(=O)C(O)(c1ccccc1)C1CCCCC1 (stereo not drawn),inactive: 0.216%
19,CP(=O)(Nc1ccccc1)Oc1ccc(F)cc1 (stereo not drawn),inactive: -0.33%
20,CCCCCOc1ccc(NP(C)(=O)Oc2ccc(Cl)cc2Cl)cc1 (stereo not drawn),inactive: -8.37%

row,Structure (SMILES),"activity, negative = inhibition"
1,CP(=O)(Nc1ccccc1F)Oc1ccccc1 (stereo not drawn),inactive: 0.025%
2,CC(C)c1ccc(OP(C)(=O)Nc2ccc(SC(F)(F)F)cc2)cc1 (stereo not drawn),inactive: 1.49%
3,O=C(OCCN1CCN(CCOCc2ccccc2)CC1)C(O)(c1ccccc1)c1ccccc1,inactive: -0.838%
4,COc1ccccc1OP(C)(=O)Nc1cccc(Br)c1 (stereo not drawn),inactive: -0.645%
5,CCOC(=O)c1ccc(NP(C)(=O)Oc2cc(C)cc(C)c2)cc1 (stereo not drawn),inactive: 0.256%
6,Cc1cc(C)cc(OP(C)(=O)Nc2ccc(C)cc2C)c1 (stereo not drawn),inactive: -1.71%
7,Cc1ccc(C)c(NP(C)(=O)Oc2ccccc2)c1 (stereo not drawn),inactive: 2.02%
8,CP(=O)(Nc1cccc(Br)c1)Oc1ccccc1 (stereo not drawn),inactive: -0.492%
9,Cc1cc(C)cc(OP(C)(=O)Nc2ccccn2)c1 (stereo not drawn),inactive: -2.21%
10,CC1=NCCc2c1[nH]c1ccccc21.O=[N+]([O-])c1cc([N+](=O)[O-])c(O)c([N+](=O)[O-])c1,inactive: -5.43%
11,O=[N+]([O-])c1cc([N+](=O)[O-])c(Nc2nnnn2CCO)c([N+](=O)[O-])c1,inactive: -0.351%
12,CC1=C2N=C(C=C3N=C(C(C)=C4[N-][C@@](C)([C@@H]5N=C1[C@](C)(CCC(=O)NC[C@@H](C)OP(=O)([O-])O[C@H]1[C@@H](O)[C@@H](n6cnc7cc(C)c(C)cc76)O[C@@H]1CO)[C@H]5CC(N)=O)[C@@](C)(CC(N)=O)[C@@H]4CCC(N)=O)[C@@](C)(CC(N)=O)[C@@H]3CCC(N)=O)C(C)(C)[C@@H]2CCC(N)=O.[C-]#N.[Co+3],inactive: -1.17%
13,CN1CCCCC1COC(=O)C1(O)c2ccccc2CCc2ccccc21 (stereo not drawn),inactive: 0.6%
14,COc1ccccc1OP(C)(=O)Nc1c(C)cccc1C (stereo not drawn),inactive: 0.423%
15,CP(=O)(Nc1ccc(SC(F)(F)F)cc1)Oc1ccccc1 (stereo not drawn),inactive: 1.39%
16,CCCOc1ccc(NP(C)(=O)Oc2ccc(Cl)cc2)cc1 (stereo not drawn),inactive: -1.97%
17,O=[N+]([O-])c1cc([N+](=O)[O-])c(-n2nnc3ccccc32)c([N+](=O)[O-])c1,inactive: -4.38%
18,Cc1nc2ccc3ccccc3c2s1.O=[N+]([O-])c1cc([N+](=O)[O-])c(O)c([N+](=O)[O-])c1,inactive: 0.299%
